The record followed here is patent publication EP4763839A1 (Pamplona Therapeutics (Shenzhen) Co., Ltd., priority 2023, dated 2025).

Protein sequences, listed by entry. Tags and fused reporters are not part of them.
UniProt Q9NWZ3, whole entry: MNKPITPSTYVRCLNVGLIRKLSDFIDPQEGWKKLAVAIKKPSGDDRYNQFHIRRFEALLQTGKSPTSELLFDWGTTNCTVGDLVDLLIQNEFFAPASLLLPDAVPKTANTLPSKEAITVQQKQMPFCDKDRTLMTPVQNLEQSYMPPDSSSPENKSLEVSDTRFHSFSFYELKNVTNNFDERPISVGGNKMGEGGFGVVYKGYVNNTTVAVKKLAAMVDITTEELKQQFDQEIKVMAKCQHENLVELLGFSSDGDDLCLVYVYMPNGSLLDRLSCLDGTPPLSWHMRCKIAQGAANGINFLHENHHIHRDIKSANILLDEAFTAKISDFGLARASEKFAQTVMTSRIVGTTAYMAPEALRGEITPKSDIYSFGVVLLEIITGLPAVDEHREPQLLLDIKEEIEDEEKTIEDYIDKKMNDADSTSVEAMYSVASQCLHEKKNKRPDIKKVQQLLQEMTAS

Where a name gives a salt, the structure may show the parent alone. Some results are limits rather than exact numbers.

For this assay, the target named is IRAK4 (Homo sapiens, UniProt Q9NWZ3). Briefly: Degradation of IRAK4 in THP1 cells, Western blot. In kind it is cell-based. Further details: Degradation of IRAK4 in THP1 by compound; host or cells: THP-1. Particulars: for Dmax: THP-1.

`COc1ccc(C(=O)N2CCC(CN3CCN(c4ccc(-n5cc(NC(=O)c6cccc(C(F)(F)F)n6)c(C(N)=O)n5)cc4)CC3)C2)cc1N1CCC(=O)NC1=O` (stereo not drawn) [Compound A303] registered a DC50 below 0.1 µM and a maximal degradation (Dmax) above 60%.
Compound `Cn1c(=O)n(C2CCC(=O)NC2=O)c2ccc(N3CCC(CCN4CCN(c5ccc(-n6cc(NC(=O)c7cccc(C(F)(F)F)n7)c(C(N)=O)n6)cc5)CC4)C3)cc21` (stereo not drawn) [Compound A307, N-(3-Carbamoyl-1-(4-(4-(2-(1-(2,6-dioxopiperidin-3-yl)-3-methyl-2-oxo-2,3-dihydro-1H-benzo[d]imidazol-5-yl)pyrrolidin-3-yl)ethyl)piperazin-1-yl)phenyl)-1H-pyrazol-4-yl)-6-(trifluoromethyl)picolinamide formate] came in with a DC50 below 0.1 µM and a maximal degradation (Dmax) above 60%.
The compound `CC(C)(O)c1nn(-c2ccc(N3CCN(C4CCN(c5ccc(NC6CCC(=O)NC6=O)cn5)CC4)CC3)cc2)cc1NC(=O)c1cccc(C(F)(F)F)n1` (stereo not drawn) [Compound A441] had a DC50 below 0.1 µM and a Dmax above 60%.
For `COc1ccc(C(=O)N2CCC(OC(=O)N3CCN(c4ccc(-n5cc(NC(=O)c6cccc(C(F)(F)F)n6)c(C(N)=O)n5)cc4)CC3)C(F)(F)C2)cc1N1CCC(=O)NC1=O` (stereo not drawn) [Compound A308], in that order: below 0.1 µM and above 60%.
For `NC(=O)c1nn(-c2ccc(N3CCN(CCN4CCN(c5ccc6c(c5)C(=O)N(C5CCC(=O)NC5=O)C6=O)CC4)CC3)cc2)cc1NC(=O)c1cccc(C(F)(F)F)n1` (stereo not drawn) [Compound A173] the same measures were below 0.1 µM and above 60%.
For `COc1ccc(C(=O)N2CCC(CCN3CCN(c4ccc(-n5cc(NC(=O)c6cccc(C(F)(F)F)n6)c(C(N)=O)n5)cc4)CC3)C(F)(F)C2)cc1N1CCC(=O)NC1=O` (stereo not drawn) [Compound A168], in that order: below 0.1 µM and above 60%.
Turning to `NC(=O)c1nn(-c2ccc(N3CCN(CC4CCN(c5ccc(C(=O)NC6CCC(=O)NC6=O)cc5)CC4)CC3)cc2)cc1NC(=O)c1cccc(C(F)(F)F)n1` (stereo not drawn) [Compound A171], the DC50 is 0.1 to 1 µM and the Dmax is above 60%.
For `NC(=O)c1nn(-c2ccc(N3CCN(CCC4CCN(c5ccc(NC6CCC(=O)NC6=O)cc5F)CC4)CC3)cc2)cc1NC(=O)c1cccc(C(F)(F)F)n1` (stereo not drawn) [Compound A194, N-(3-Carbonyl-1-(4-(4-(2-(4-(((2,6-dioxopiperidin-3-yl)amino)-2-fluorophenyl)piperidin-4-yl)ethyl)piperazin-1-yl)phenyl)-1H-pyrazol-4-yl)-6-(trifluoromethyl)picolinamide], in that order: below 0.1 µM and 40 to 60%.
Regarding `NC(=O)c1nn(-c2ccc(N3CCN(CC4CCN(c5ccc(NC6CCC(=O)NC6=O)cc5F)CC4)CC3)cc2)cc1NC(=O)c1cccc(C(F)(F)F)n1` (stereo not drawn) [Compound A195], the DC50 was below 0.1 µM and the Dmax is above 60%.
